Patent US20250084074A1, “SUBSTITUTED HETEROCYCLES AS HSET INHIBITORS” (MERCK PATENT GMBH, priority 2022, published 2025)

By UniProt entry, the sequences of proteins in these tests, tags left out.
UniProt Q9BW19, whole entry: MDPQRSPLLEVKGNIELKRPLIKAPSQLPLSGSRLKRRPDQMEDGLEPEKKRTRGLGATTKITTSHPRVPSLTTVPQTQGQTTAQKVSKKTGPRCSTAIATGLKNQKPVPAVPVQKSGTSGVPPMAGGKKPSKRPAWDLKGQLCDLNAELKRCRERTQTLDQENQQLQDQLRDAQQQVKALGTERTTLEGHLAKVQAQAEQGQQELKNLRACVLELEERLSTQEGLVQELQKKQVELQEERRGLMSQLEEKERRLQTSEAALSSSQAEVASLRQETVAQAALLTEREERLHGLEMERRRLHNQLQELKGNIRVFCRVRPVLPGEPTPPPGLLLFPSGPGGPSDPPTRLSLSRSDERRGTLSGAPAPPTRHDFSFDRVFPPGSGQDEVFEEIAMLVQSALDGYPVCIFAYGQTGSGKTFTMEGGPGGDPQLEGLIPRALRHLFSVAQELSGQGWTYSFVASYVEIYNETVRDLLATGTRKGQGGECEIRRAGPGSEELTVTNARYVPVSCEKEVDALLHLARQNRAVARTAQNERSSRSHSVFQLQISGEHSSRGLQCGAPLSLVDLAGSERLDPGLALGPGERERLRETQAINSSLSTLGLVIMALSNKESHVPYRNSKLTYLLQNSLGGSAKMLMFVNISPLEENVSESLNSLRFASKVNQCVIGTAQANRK

Target: HSET full length protein (Homo sapiens (Human), UniProt Q9BW19)
Assay: HSET ADP-Glo Assay S - 3 μM ATP
Conditions: read-out: COMBINED HSET ADP GLO IC50, 5 nM HSET, 70 μg/mL microtubule, 80 min at rt
Protocol: Example 281: Testing compounds of the present invention for inhibitory activities against HSET—HSET ADP-Glo Assay S—3 μM ATP
Reagents: (+4° C. Storage) • Paclitaxel Prod.No.TXD.01 2 mM in DMSO (from Universal Biologicals Cambridge). • Tubulin Protein (Pre-formed Microtubules): Bovine Brain Prod.No.MT001-XL Lot.025 10 mg/mL (from Universal Biologicals Cambridge).
Reagents: (−80° C. Storage) • MT001-XL—Tubulin Protein (Pre-formed Microtubules): Bovine Brain—reconstituted in buffer—15 mM PIPES pH7, 1 mM MgCl2, 20 μM paclitaxel (aliquots at 10 mg/mL) from Universal Biologicals Cambridge. • HSET full length protein—Current batch is FL HSET Prep1 (SEQ-000096_002-01_01) • Buffer is 20 mM Hepes pH 7.5, 200 mM NaCl, 2 mM TCEP, 5% glycerol (5 μL aliquots at 10.2 μM)
Reagents: (−20° C. Storage) • ADP-Glo Kinase Assay kit (Promega Prod.No.V9102) 10,000 assay points • ADP-Glo reagent (50 mL), Kinase Detection Reagent (100 mL), and Ultrapure ATP (10 mM) aliquoted […]

CCOC(=O)c1sc(NC(=O)CCNC(=O)c2cccc(C(=O)OC)c2)nc1C
IC50: 397 nM
